Measurements taken from US20250025411A1, “READILY SOLUBLE AND THERMOSTABLE GLUCAGON FORMULATIONS AND DELIVERY FOR MINI-DOSING AND CLOSED -LOOP PROPHYLACTIC TREATMENT OF HYPOGLYCEMIA” (Massachusetts Institute of Technology, priority 2023, published 2025).

Test: High throughput screening of water-soluble solid excipients for glucagon dissolution
Assay type: physicochemical
Details: pH 7.4

Question: For Sodium Thiosulfate, which “Glucagon concentration Avg.” value is on record?
Answer: The value was 0.60 mg/mL.
